Results reported in patent US10487153B2, “Carbonic anhydrase IX-specific antibodies and uses thereof” (National Research Council of Canada, priority 2015, dated 2019).
Read-outs that look alike come from different tables or passages of the source.

Amino acid sequences for entries named in this document (tags omitted). Residues count along the entry.
UniProt O43570, 25-354: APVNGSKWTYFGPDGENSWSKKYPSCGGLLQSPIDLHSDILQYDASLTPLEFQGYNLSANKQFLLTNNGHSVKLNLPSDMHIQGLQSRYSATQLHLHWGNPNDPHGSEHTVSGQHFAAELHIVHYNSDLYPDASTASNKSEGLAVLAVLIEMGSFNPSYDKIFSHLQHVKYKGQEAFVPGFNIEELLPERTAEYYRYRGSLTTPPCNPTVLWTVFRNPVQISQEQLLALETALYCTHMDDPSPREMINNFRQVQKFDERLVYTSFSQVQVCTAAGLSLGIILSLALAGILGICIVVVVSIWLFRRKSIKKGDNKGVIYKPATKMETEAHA
UniProt O43570, 25-301 limits assumed: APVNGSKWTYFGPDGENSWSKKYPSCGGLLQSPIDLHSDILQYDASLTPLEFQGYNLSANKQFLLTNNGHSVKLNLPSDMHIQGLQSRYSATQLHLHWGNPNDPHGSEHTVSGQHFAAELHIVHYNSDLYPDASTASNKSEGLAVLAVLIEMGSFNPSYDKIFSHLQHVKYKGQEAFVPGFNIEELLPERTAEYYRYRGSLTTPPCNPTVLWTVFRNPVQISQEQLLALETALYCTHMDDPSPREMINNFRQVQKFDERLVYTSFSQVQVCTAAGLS
UniProt P22748, 19-284: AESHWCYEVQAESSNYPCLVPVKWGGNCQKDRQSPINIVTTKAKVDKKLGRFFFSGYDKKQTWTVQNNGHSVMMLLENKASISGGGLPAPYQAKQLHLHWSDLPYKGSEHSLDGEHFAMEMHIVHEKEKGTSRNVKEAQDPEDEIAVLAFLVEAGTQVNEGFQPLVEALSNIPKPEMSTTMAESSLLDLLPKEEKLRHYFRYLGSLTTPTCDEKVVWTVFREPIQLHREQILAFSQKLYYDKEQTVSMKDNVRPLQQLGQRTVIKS
UniProt Q9ULX7, 16-337: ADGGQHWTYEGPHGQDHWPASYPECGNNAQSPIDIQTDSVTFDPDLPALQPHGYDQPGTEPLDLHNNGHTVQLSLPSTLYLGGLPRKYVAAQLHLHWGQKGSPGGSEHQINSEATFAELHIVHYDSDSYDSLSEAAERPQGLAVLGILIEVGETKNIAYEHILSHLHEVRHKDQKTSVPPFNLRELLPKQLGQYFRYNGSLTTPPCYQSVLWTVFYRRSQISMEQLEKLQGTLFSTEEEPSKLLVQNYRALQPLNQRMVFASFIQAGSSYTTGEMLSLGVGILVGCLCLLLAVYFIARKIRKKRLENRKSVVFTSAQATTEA
UniProt Q8VHB5, 32-437: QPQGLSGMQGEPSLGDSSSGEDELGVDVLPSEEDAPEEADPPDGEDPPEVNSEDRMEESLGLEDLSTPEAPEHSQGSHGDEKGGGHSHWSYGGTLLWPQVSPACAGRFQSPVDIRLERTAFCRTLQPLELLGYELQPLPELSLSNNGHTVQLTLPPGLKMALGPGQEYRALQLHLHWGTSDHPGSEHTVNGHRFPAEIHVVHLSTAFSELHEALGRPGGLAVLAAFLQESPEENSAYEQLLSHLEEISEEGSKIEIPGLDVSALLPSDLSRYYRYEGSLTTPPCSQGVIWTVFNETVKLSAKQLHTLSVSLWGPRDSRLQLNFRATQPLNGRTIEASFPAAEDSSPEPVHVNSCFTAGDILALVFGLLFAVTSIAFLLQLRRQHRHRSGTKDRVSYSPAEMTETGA
UniProt Q8VHB5, 32-390 limits assumed: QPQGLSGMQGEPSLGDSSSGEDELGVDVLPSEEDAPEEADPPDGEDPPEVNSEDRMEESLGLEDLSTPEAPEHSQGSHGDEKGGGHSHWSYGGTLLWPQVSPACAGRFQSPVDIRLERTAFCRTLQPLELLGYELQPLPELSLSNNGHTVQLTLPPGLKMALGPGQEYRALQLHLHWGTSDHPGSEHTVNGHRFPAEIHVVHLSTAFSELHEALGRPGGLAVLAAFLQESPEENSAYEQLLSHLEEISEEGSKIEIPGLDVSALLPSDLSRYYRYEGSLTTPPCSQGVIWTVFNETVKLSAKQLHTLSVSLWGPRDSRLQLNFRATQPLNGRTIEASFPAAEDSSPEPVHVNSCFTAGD

How the values were obtained:
rhCA-XII = molecular target: T1, rhCA-XII (Homo sapiens, UniProt O43570); assay: Cross-reactivity determination by SPR; type: binding; conditions: 100 nM analyte
T1 construct: purchased Sino Biologics Inc
Procedure: (§1) CA proteins for the analyte injection were purchased from Sino Biologics Inc.; the proteins were reconstituted as recommended by the manufacturer and diluted to 100 nM in SPR running buffer for binding analysis.

rhCA-IV = molecular target: T2, rhCA-IV (Homo sapiens, UniProt P22748); assay: Cross-reactivity determination by SPR; type: binding; conditions: 100 nM analyte
T2 construct: purchased Sino Biologics Inc
Procedure: as §1

rhCA-XIV = molecular target: T3, rhCA-XIV (Homo sapiens, UniProt Q9ULX7); assay: Cross-reactivity determination by SPR; type: binding; conditions: 100 nM analyte
T3 construct: purchased Sino Biologics Inc
Procedure: as §1

[1] = molecular target: T4, human CA-XII extracellular domain (ECD) (Homo sapiens, UniProt O43570); assay: CA-XII binding by SPR; conditions: 100 nM of human CA-XII ECD
T4 construct: SPR measurements using 100 nM of human CA-XII extracellular domain (ECD)
Procedure: (§2) A ProteON GLC chip was activated with sEDS and sNHS prior to immobilizing approximately 4000 RUs of Goat anti-human Fc (Jackson InnumoResearch) via amine (lysine) coupling in 10 mM acetate buffer pH 4.5. This surface was then used to capture c2C7 and c12H8 on different flow cells. Recombinantly-expressed (CHO cells) SEC purified dimeric CA-IX extracellular domain (ECD) from human, mouse, dog and cynomolgus monkey and human CA-XII, were prepared in PBS with 0.02% Polysorbate-20. These dilutions were then flowed over the captured antibodies at 5 different concentrations from 100 nM to 1.23 nM using a flow rate 50 μL/min. […] Kinetic association and dissociation rate constants were determined from non-linear fitting of the observed responses to a 1:1 binding mocel. These rate constants were used to calculate the binding constant KD.

[2] = tested on: native peptides covering the hCA-IX ECD; type: binding, human; set-up: key: −, no binding; +, binding
Procedure: (§3) The hCA-IX fragments covering the entire hCA-IX ECD (FIG. 13A) or the PG domain alone (FIG. 13B) were expressed as fusion proteins (Aga2-HA-(CA-IX)-MYC (pPNL6 vector) or (CA-IX)-Aga2-MYC (pPNL200 vector)) on the yeast cell surface. The YSD vectors (pPNL6 and pPNL200) were from The Pacific Northwest National Laboratory, USA. […] The binding of the mAb to yeast cells was performed using a whole yeast cell ELISA. […] The binding of mAb to denatured yeast cells was normalized to the anti-MYC signal. The ratio of normalized anti-CA-IX signals of each mAb on native versus denatured hCA-IX peptide was thus indicative of the conformational nature of the epitope. In the native hCA-IX experiments, the commercial M75 mAb was used as a positive control; the epitope of this mAb is known (Zavada et al., 2000) and is located in the hCA-IX PG domain.

[3] = tested on: denatured peptides covering the hCA-IX ECD; type: binding, human; set-up: key: −, no binding; +, binding
Procedure: as §3

[4] = tested on: native peptides covering the hCA-IX ECD PG domain; type: binding, human; set-up: key: −, no binding; +, binding; conditions: PNL6 Aga2-HA-X-MYC; clone 15 A + B; Plasmid Ctrl, no peptide
Procedure: as §3

[5] = Differential Scanning Calorimetry (DSC) thermostability; type: physicochemical; conditions: 0.125 mg/mL in PBS, 90° C./hour, 25-100° C.; Cetuximab as positive control
Procedure: Melting temperatures (Tm) were determined from the integrated thermograms using Origin 7 software. The anti-HER1 antibody Cetuximab was used as a positive control.

rmCA-IX = molecular target: T5, rmCA-IX (Mus musculus, UniProt Q8VHB5); assay: Cross-reactivity determination by SPR; type: binding, murine; conditions: 100 nM analyte
T5 construct: purchased Sino Biologics Inc
Procedure: as §1

[6] = tested on: Human-induced pluripotent (iPS) cardiomyocytes; assay: Cardiotoxicity in iPS cardiomyocytes (CellTiter-Glo); type: cell-based; conditions: 10 nM; 3 and 5 days post-treatment; compared to non-specific human IgG1 negative control and corresponding ADC
Procedure: Human-induced pluripotent (iPS) cardiomyocytes were obtained from Cellular Dynamics Inc. iPS cardiomyocytes (iCells) were thawed and cultured according to the manufacturers instructions. Briefly, cells were thawed, resuspended in iCell plating media, seeded in 0.1% gelatin-coated 96-well plates (15,000 cells/well) and maintained in a humidified incubator with 5% CO2 at 37° C. for 4 hours. Cells were then washed to remove debris and the plating media was replaced with iCell Maintenance Media which was then changed every other day during the course of the experiment. […] A non-specific negative control human IgG1 and the corresponding DM1-conjugated ADC were also used for treated the cells using the same protocol. Cell viability was measured 3 and 5 days post-treatment using the CellTiter-Glo Luminescent cell viability Assay (Promega, Madison, Wis.). Briefly, the plates and reagents were equilibrated to room temperature for 30 minutes. A volume of CellTiter-Glo reagent was added to the volume of cell culture medium present in each well and mixed on an orbital shaker for 45 minutes. The luminescence was then recorded using an EnVision plate reader (PerkinElmer Inc.)

[7] = molecular target: dimeric CA-IX extracellular domain (ECD) from dog; assay: CA-IX species binding by SPR; conditions: CA-IX ECD 100 nM to 1.23 nM, read-out: Specific binding, Dog
Procedure: as §2

[8] = molecular target: T6, dimeric CA-IX extracellular domain (ECD) from mouse (Mus musculus, UniProt Q8VHB5); assay: CA-IX species binding by SPR; conditions: CA-IX ECD 100 nM to 1.23 nM, read-out: Specific binding, Mouse
T6 construct: SEC purified dimeric CA-IX extracellular domain (ECD) from human, mouse, dog and cynomolgus monkey; made in house; host or cells: CHO cells
Procedure: as §2

[9] = molecular target: dimeric CA-IX extracellular domain (ECD) from cynomolgus monkey; assay: CA-IX species binding by SPR; conditions: CA-IX ECD 100 nM to 1.23 nM, read-out: Specific binding, Cynomolgus
Procedure: as §2

[10] = PNL6 Aga2-HA-X-MYC, clone 11B, Plasmid Ctrl, Neg Ctrl
[11] = PNL6 series, EBY100, no plasmid, Strain Ctrl, Neg Ctrl
[12] = PNL200 X-Aga2-MYC, clone 22A, Plasmid Ctrl, Neg Ctrl
[13] = PNL200 series, EBY100, no plasmid, Strain Ctrl, Neg Ctrl
[14] = PNL6 Aga2-HA-CA9-MYC, clone 3A, fragment 3, aa 1-136, SP+PG+
[15] = PNL200 CA9-Aga2-MYC, clone 14A, fragment 3, aa 1-136, SP+PG+

B1: c11H9: chimeric 11H9, human kappa1 light chain and human IgG1 heavy chain; SEQ ID NO:27 and 28 (protein)
light: DVVMTQTPLSLPVSLGDQASISCRSSQSLVHSNGNTYLHWYLQKPGQSPKLLIYKVSNRFSGVPDRFSGSGSGTDFTLKISRVEAEDLGVYFCSQNTHVPPTFGGGTKLEIKRTVAAPSVFIFPPSDEQLKSGTASVVCLLNNFYPREAKVQWKVDNALQSGNSQESVTEQDSKDSTYSLSSTLTLSKADYEKHKVYACEVTHQGLSSPVTKSFNRGEC
heavy: EVQLVESGGRLVQPKGSLKLSCAASGFTFNTYAMYWIRQAPGKGLEWVARIRSKSNNYAIYYADSVKDRFTISRDDSQSMLYLQMNNLKTEDTAMYYCVRGWDWFAYWGQGTPVTVSAASTKGPSVFPLAPSSKSTSGGTAALGCLVKDYFPEPVTVSWNSGALTSGVHTFPAVLQSSGLYSLSSVVTVPSSSLGTQTYICNVNHKPSNTKVDKKV[letters of human IgG1 Fc omitted]
modifications: Chimeric 11H9 Light Chain; Chimeric 11H9 Heavy chain
What does the source list for B1?
binding to rhCA-XII (rhCA-XII): no binding was detected; binding to rhCA-IV (rhCA-IV): no binding was detected; binding to rhCA-XIV (rhCA-XIV): no binding was detected; binding to human CA-XII ECD [1]: no binding; Anti-hCA-IX antibody binding intensity [2, 10]: −; Anti-hCA-IX antibody binding intensity [2, 11]: −; Anti-hCA-IX antibody binding intensity [2, 12]: −; Anti-hCA-IX antibody binding intensity [2, 13]: −; Anti-hCA-IX antibody binding intensity [3, 10]: −; Anti-hCA-IX antibody binding intensity [3, 11]: −; Anti-hCA-IX antibody binding intensity [3, 12]: −; Anti-hCA-IX antibody binding intensity [3, 13]: −; Anti-hCA-IX antibody binding intensity [4]: −; thermostability (DSC) [5]: slightly less stable; binding to rmCA-IX (rmCA-IX): no binding was detected

B2: c2C7: chimeric 2C7, human kappa1 light chain and human IgG1 heavy chain; SEQ ID NO:25 and 26 (protein)
light: DIQMTQSPASLSASVGETVTITCRASGNIHNYLAWYQQKQGKSPQLLVYNTITLADGVPSRFSGSGSGTQYSLKINSLQPEDFGSYYCQHFWNIPFTFGAGTKLELKRTVAAPSVFIFPPSDEQLKSGTASVVCLLNNFYPREAKVQWKVDNALQSGNSQESVTEQDSKDSTYSLSSTLTLSKADYEKHKVYACEVTHQGLSSPVTKSFNRGEC
heavy: QVQLQQSGPELVKPGASVRISCKASGFTFTSCYIHWMKQRPGQGLEWIGWIYPGNGNTKYNEIFKGRATLTTDKSSSTAYMQLSSLTSEDSAVYFCARGDTTANTMDYWGQGTSVTVSSASTKGPSVFPLAPSSKSTSGGTAALGCLVKDYFPEPVTVSWNSGALTSGVHTFPAVLQSSGLYSLSSVVTVPSSSLGTQTYICNVNHKPSNTKVDKKV[letters of human IgG1 Fc omitted]
modifications: Chimeric 2C7 Light chain; Chimeric 2C7 Heavy Chain
Which results are given for B2?
binding to rhCA-XII (rhCA-XII): no binding was detected; binding to rhCA-IV (rhCA-IV): no binding was detected; binding to rhCA-XIV (rhCA-XIV): no binding was detected; impact on cell viability [6]: neither c2C7, c12H8 or their corresponding DM1 conjugate ADCs had any significant impact; Kd [7]: > 20 nM; Kd [8]: > 20 nM; Kd [9]: < 20 nM; binding to human CA-XII ECD [1]: no binding; Anti-hCA-IX antibody binding intensity [2, 14]: −; Anti-hCA-IX antibody binding intensity [2, 10]: −; Anti-hCA-IX antibody binding intensity [2, 11]: −; Anti-hCA-IX antibody binding intensity [2, 15]: −; Anti-hCA-IX antibody binding intensity [2, 12]: −; Anti-hCA-IX antibody binding intensity [2, 13]: −; Anti-hCA-IX antibody binding intensity [3, 14]: −; Anti-hCA-IX antibody binding intensity ([3]; PNL6 Aga2-HA-CA9-MYC, clone 9A, fragment 9, aa 1-414, SP+PG+CA+): −; Anti-hCA-IX antibody binding intensity [3, 10]: −; Anti-hCA-IX antibody binding intensity [3, 11]: −; Anti-hCA-IX antibody binding intensity [3, 15]: −; Anti-hCA-IX antibody binding intensity ([3]; PNL200 CA9-Aga2-MYC, clone 20A, fragment 9, aa 1-414, SP+PG+CA+): −; Anti-hCA-IX antibody binding intensity [3, 12]: −; Anti-hCA-IX antibody binding intensity [3, 13]: −; Anti-hCA-IX antibody binding intensity [4]: −; binding to rmCA-IX (rmCA-IX): no binding was detected
